GIV-Gai inh = inhibitors of GIV peptide binding to Galpha-i3, primary screen, biochemical, fluorescence polarization, FITC-GIV GBA peptide, rat Galphai3 | Guanine nucleotide-binding protein G(i) subunit alpha-3 (Rattus norvegicus), P08753 | 90 min; active compounds read low; scaled: aluminum fluoride 0%, vehicle 100% | 210,000 tested, 0.42% active | AID 1224905, 2016 | percent of control (FP), % (no concentration beside the values);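 active means replicate mean at 85% of control or lower, very high polarization wells dropped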;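 further: wells of about 15 µL received 100 nL stock; the first replicate is given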
HCMV NEC inh = inhibitors of HCMV UL50-UL53 nuclear egress complex interaction. HTRF UL50-UL53 interaction, normalized percent inhibition. AID 1918969. 0.15% of 190,000 active. inhibition, % (test concentration not listed); in the data active = inhibition above about 27%, passing the limit was not always enough
Of the large screens only hits and unclear results are named; the others gave an inactive call. Shown are actives, neighbours in structure and some others; about 0.43% of the full set was active somewhere.

Sequences of proteins named here, by UniProt entry; tags and fusion partners are left off.
Guanine nucleotide-binding protein G(i) subunit alpha-3 (Rattus norvegicus), P08753, UniProt P08753, whole entry, looked up: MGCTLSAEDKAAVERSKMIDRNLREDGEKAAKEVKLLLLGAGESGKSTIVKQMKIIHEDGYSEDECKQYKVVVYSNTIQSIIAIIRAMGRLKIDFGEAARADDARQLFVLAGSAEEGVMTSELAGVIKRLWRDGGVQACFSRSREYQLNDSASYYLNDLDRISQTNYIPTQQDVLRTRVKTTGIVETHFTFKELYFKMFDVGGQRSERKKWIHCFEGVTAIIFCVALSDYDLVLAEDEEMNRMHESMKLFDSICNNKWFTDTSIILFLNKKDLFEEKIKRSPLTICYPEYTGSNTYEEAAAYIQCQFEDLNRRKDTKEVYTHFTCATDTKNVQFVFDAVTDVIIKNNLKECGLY

Cc1ccc(S(=O)(=O)N2CCN(c3cc(=O)n4nc(-c5ccccc5)sc4n3)CC2)cc1	none
Cc1nc2ccccc2c(=O)o1	none (no result: GIV-Gai inh)
NC(=O)C[n+]1ccn2c(NC3CCCCC3)c(-c3ccccc3O)nc2c1	GIV-Gai inh -74.8 (no result: HCMV NEC inh)
Cc1ccc(Nc2c(-c3ccccc3O)nc3cc(C)ccn23)cc1	none
CC1Cc2ccccc2N1C(=O)COc1ncnc2c1cnn2-c1ccccc1 (configuration not stated)	none (no result: GIV-Gai inh)
CCc1cc(=O)[nH]c(Nc2ccccc2)n1	none
CCCc1cc(=O)[nH]c(Nc2ccccc2)n1	HCMV NEC inh 76.7
CC1CN(C(=O)c2ccc(C#N)cc2)CC(C)O1 (configuration not stated)	none (no result: GIV-Gai inh)
CCOc1cc(C2N(c3ccc(C)cc3)CCN2c2ccc(C)cc2)cc(Br)c1O	none (no result: HCMV NEC inh)
C=CC1=C(C(=O)O)N2C(=O)C(NC(=O)C(=NOCC(=O)O)c3csc(N)n3)C2SC1 (configuration not stated)	HCMV NEC inh 94.9 (no result: GIV-Gai inh)
C=CC1=C(C(=O)O)N2C(=O)[C@H](NC(=O)C(=NO)c3csc(N)n3)[C@H]2SC1	none (no result: GIV-Gai inh)
CCOC(=O)c1oc2cc(OCc3ccc(C(=O)OC)o3)ccc2c(=O)c1-c1ccc(C(=O)OC)o1	none
CN(C1=CC(=O)c2ccccc2C1=O)c1ccccc1	none (no result: GIV-Gai inh)
COC1=CC(=O)c2ccccc2C1=O	HCMV NEC inh 100.9
COC(=O)c1sccc1N1Cc2ccncc2C1=O	none
O=C1c2cnccc2CN1c1cc(F)ccc1F	HCMV NEC inh 34.9
CC(c1ccccc1)C1C(C#N)=C(N)SC(N)=C1C#N (configuration not stated)	none
CC(CC1C(C#N)=C(N)SC(N)=C1C#N)c1ccccc1 (configuration not stated)	GIV-Gai inh -73.7
C=CCNC(=O)C1CC=CCC1C(=O)Nc1ccccc1C (configuration not stated)	none
COc1ccc(NC(=O)c2cncc(NS(=O)(=O)c3ccc(F)cc3)c2)cc1	none
COc1ccc(-c2nc(CNC(=O)c3ccc(-c4noc(C5CC5)n4)cc3)no2)cc1	none
CCCN1C(=S)N(CCO)C(=O)/C1=C/C=C1/Oc2ccccc2N1CCC(=O)O	GIV-Gai inh -20.2
CCN1/C(=C/C=C2/C(=O)N(C)C(=S)N2C)Oc2ccccc21	none
CC(C)(C)C(=O)Nc1ccc(-c2nc3ccc(NC(=O)C(C)(C)C)cc3[nH]2)cc1	none
C=CC(=O)Nc1ccc(-c2nc3ccc(NC(=O)C=C)cc3[nH]2)cc1	HCMV NEC inh 53.8
CNC(=O)CSc1nnc(-c2ccco2)n1CC1CCCO1 (configuration not stated)	none
COc1ccc(C(=O)NCCc2csc(C)n2)cc1	none
CN(C)c1ccc(C2Nc3ccccc3C(=O)N2c2ccc(Br)cc2)cc1 (configuration not stated)	none (no result: HCMV NEC inh)
CC(c1ccccc1)N1CCC(CN)C1 (configuration not stated)	none
CC(C)C(=O)Nc1ccc(Cl)cc1C(=O)O	none
CC(C)C(=O)Nc1ccc(N(C)C)cc1C(=O)O	HCMV NEC inh 51.4
O=C(c1cccc(F)c1)N1c2ccccc2Sc2ccccc21	none (no result: HCMV NEC inh)
CCN(CC)CCNc1nc2c(c(=O)n(C)c(=O)n2C)n1Cc1ccc(Br)cc1	none
C=CC(=O)Nc1cccc(Oc2nc(Nc3ccc(N4CCN(C)CC4)cc3OC)ncc2Cl)c1	none (no result: GIV-Gai inh)
C=CC(=O)Nc1cccc(Oc2cc(Cl)nc3[nH]ccc23)c1	HCMV NEC inh 33.8 (no result: GIV-Gai inh)
O=c1cc(CSc2nc(NCC3CCCO3)c3ccccc3n2)nc2ccccn12 (configuration not stated)	none (no result: HCMV NEC inh)
CCN1CC2=C(OC(N)=C(C#N)C2c2ccc(F)cc2)/C(=C/c2ccc(F)cc2)C1 (configuration not stated)	none (no result: HCMV NEC inh)
N#CC1=C(N)OC2=C(CC/C2=C/c2ccccc2)C1c1ccccc1 (configuration not stated)	GIV-Gai inh -56.6
CCCCCCc1cc2cc(-c3nnc(-c4ccc(C)cc4)o3)c(=O)oc2cc1O	GIV-Gai inh 7.6
CCCCCCc1cc2cc(-c3csc(Nc4ccc(Cl)cc4Cl)n3)c(=O)oc2cc1O	none
C[n+]1cccc(O)c1I	none
CN1CCCc2cc(/C=C3\Cc4ccccc4C3=O)ccc21	GIV-Gai inh -74.8 (no result: HCMV NEC inh)
COc1cc(/C=C2\Cc3ccccc3C2=O)ccc1O	none
CCOc1ccc2oc(C)c(C(=O)Nc3ccc(C)cc3C)c2c1	none
CC(C)c1nc(NCc2ccccc2)c(C#N)c2c1CCCC2	none
N#Cc1c(NCc2ccccc2)ncc2c1Nc1ccccc1C2	GIV-Gai inh 73.3
CC(C)Cn1cc(C(=O)N2CCN(Cc3ccc4c(c3)OCO4)CC2)c2c3ccccc3n(C)c2c1=O	none
NNc1nc(-c2ccccc2)cc(-c2ccccc2O)n1	none (no result: HCMV NEC inh)
COc1ccc(-c2cc(-c3ccccc3O)nc(NC(N)=S)n2)cc1	HCMV NEC inh 51.0 (no result: GIV-Gai inh)
CN(C)c1ccc(/C=C2\N=C(c3ccc(Br)o3)OC2=O)cc1	GIV-Gai inh -56.4
CN(C)c1ccc(/C=C2/N=C(c3cccs3)OC2=O)cc1	none (no result: GIV-Gai inh)
COc1ccc(C2(CNC(=O)C(c3ccccc3)c3ccccc3)CCCC2)cc1OC	none (no result: HCMV NEC inh)
Cc1ccc(-c2ccc(=O)n(CCC(=O)NCCN3CCN(c4cccc(Cl)c4)CC3)n2)cc1	none (no result: HCMV NEC inh)
COc1cccc(C2(O)CCN(CC(=O)N3CCCC3)CC2)c1	none
CCSc1nnc2c(n1)OC1(Nc3ccccc3-2)C(=O)Nc2ccc(Br)cc21 (configuration not stated)	none (no result: GIV-Gai inh)
CSc1nnc2c(n1)OC1(Nc3ccccc3-2)C(=O)Nc2ccc(Cl)cc21 (configuration not stated)	HCMV NEC inh 50.4
O=C(C1CCC1)N1CCCN(c2nc3cc(Cl)ccc3n3cccc23)CC1	none
COc1cc([N+](=O)[O-])ccc1-c1ccc(/C=C2/C(C)=C(C#N)c3nc(N)c(C#N)c(C)c32)o1	none
O=C1Nc2ccc(Br)cc2/C1=C/c1cc2c([nH]1)CCCC2	none (no result: GIV-Gai inh)
CN(C)S(=O)(=O)c1ccc2c(c1)/C(=C/c1cc3c([nH]1)CCCC3)C(=O)N2	GIV-Gai inh -20.7
O=C(/C=C/c1nc2ccccc2s1)N1CCN(C(=O)C2CCCO2)CC1 (configuration not stated)	none (no result: GIV-Gai inh)
O=C(O)CN1C(=O)Cc2ccccc2C1=O	HCMV NEC inh 103.0 (no result: GIV-Gai inh)
COC(=O)CN1C(=O)Cc2ccccc2C1=O	none
Cc1ccc(S(=O)(=O)N(CC(O)Cn2c3ccccc3c3ccccc32)c2ccc(Br)cc2)cc1 (configuration not stated)	none (no result: HCMV NEC inh)
O=c1oc2ccccc2nc1/C=C(\O)c1cccs1	GIV-Gai inh -68.8
O=C(c1ccccc1)c1nc2ccccc2oc1=O	none (no result: GIV-Gai inh)
COc1cc2nc(NCc3ccccc3)n3nc(-c4cccnc4)nc3c2cc1OC	none
O=C(c1ccc2ncsc2c1)N1CCCCC1	none (no result: GIV-Gai inh)
O=C(O)c1ccc2ncsc2c1	HCMV NEC inh 71.2 (no result: GIV-Gai inh)
O=C(Nc1ccc(F)cc1F)Nc1nc(-c2ccc(F)cc2)cn1/N=C/c1ccc(Cl)cc1Cl	none (no result: HCMV NEC inh)
Cc1ccc(-c2csc(NC(=O)CSc3nnc4[nH]c(=O)c(C)nn34)n2)cc1	none (no result: HCMV NEC inh)
CCN=C1S/C(=C\c2ccc(C(=O)OC)cc2)C(=O)N1CC	none
CCN1C(=O)/C(=C\C=C2/N(CC)c3ccc(C(=O)OC)cc3N2CC)SC1=S	GIV-Gai inh -73.7
COC(=O)c1ccc(-n2c(C)cc3ccccc32)s1	none
Cc1cc2ccccc2n1-c1ccc(C(=O)NC2CCCC2)s1	HCMV NEC inh 56.4
Cn1c(=O)c(O)c2c3c(c(Br)ccc31)C(=O)c1ccccc1-2	GIV-Gai inh -29.3 (no result: HCMV NEC inh)
Cn1c(=O)cc2c3c(c(Br)ccc31)C(=O)c1ccccc1-2	none (no result: HCMV NEC inh)
Cc1csc(-c2cc(S(=O)(=O)NCCCN3CCCc4ccccc43)c(C)s2)n1	none (no result: HCMV NEC inh)

Screens as filed in PubChem.
